Laboratory results: publication PMC6858350, “A common mechanism allows selective targeting of GluN2B subunit-containing N-methyl-D-aspartate receptors” (Communications Biology, 2019)

Amino acid sequences for entries named in this document (tags omitted). Residues count along the entry.
UniProt Q00960, 27-1482: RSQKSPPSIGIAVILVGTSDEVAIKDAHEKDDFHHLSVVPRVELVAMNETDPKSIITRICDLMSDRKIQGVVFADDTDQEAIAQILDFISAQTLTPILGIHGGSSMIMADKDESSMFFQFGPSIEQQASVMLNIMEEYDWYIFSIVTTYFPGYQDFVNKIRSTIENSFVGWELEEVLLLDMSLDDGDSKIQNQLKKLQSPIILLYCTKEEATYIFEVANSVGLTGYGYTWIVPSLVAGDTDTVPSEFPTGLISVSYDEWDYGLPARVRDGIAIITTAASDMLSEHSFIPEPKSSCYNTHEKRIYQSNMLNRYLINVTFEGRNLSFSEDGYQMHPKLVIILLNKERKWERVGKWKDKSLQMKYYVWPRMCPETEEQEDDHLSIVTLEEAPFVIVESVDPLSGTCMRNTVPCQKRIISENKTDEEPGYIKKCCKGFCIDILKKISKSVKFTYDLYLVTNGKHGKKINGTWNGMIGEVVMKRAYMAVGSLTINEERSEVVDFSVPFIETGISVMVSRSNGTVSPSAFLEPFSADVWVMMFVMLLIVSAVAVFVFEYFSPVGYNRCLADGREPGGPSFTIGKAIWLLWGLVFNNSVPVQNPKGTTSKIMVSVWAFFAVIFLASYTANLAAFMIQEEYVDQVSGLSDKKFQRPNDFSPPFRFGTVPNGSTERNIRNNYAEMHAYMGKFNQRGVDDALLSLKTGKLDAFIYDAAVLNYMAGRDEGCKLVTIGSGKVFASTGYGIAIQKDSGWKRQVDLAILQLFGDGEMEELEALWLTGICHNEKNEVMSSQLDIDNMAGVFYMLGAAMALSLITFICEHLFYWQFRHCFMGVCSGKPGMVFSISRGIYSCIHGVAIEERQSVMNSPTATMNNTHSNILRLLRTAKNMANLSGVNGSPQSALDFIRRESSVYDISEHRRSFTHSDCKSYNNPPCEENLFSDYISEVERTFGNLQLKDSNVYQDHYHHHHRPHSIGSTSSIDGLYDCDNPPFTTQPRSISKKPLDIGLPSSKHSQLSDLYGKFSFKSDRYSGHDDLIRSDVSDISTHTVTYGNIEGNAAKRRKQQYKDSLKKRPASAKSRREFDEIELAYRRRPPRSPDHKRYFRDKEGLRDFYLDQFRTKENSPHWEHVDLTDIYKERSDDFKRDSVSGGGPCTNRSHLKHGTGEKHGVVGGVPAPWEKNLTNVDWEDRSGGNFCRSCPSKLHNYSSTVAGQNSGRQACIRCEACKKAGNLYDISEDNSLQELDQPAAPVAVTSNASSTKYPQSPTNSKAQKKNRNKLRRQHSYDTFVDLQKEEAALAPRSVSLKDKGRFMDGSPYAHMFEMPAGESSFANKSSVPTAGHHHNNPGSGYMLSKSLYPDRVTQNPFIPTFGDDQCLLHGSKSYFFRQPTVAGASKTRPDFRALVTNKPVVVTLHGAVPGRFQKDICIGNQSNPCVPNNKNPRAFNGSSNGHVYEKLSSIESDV
UniProt Q00960, 27-1482 Q110A: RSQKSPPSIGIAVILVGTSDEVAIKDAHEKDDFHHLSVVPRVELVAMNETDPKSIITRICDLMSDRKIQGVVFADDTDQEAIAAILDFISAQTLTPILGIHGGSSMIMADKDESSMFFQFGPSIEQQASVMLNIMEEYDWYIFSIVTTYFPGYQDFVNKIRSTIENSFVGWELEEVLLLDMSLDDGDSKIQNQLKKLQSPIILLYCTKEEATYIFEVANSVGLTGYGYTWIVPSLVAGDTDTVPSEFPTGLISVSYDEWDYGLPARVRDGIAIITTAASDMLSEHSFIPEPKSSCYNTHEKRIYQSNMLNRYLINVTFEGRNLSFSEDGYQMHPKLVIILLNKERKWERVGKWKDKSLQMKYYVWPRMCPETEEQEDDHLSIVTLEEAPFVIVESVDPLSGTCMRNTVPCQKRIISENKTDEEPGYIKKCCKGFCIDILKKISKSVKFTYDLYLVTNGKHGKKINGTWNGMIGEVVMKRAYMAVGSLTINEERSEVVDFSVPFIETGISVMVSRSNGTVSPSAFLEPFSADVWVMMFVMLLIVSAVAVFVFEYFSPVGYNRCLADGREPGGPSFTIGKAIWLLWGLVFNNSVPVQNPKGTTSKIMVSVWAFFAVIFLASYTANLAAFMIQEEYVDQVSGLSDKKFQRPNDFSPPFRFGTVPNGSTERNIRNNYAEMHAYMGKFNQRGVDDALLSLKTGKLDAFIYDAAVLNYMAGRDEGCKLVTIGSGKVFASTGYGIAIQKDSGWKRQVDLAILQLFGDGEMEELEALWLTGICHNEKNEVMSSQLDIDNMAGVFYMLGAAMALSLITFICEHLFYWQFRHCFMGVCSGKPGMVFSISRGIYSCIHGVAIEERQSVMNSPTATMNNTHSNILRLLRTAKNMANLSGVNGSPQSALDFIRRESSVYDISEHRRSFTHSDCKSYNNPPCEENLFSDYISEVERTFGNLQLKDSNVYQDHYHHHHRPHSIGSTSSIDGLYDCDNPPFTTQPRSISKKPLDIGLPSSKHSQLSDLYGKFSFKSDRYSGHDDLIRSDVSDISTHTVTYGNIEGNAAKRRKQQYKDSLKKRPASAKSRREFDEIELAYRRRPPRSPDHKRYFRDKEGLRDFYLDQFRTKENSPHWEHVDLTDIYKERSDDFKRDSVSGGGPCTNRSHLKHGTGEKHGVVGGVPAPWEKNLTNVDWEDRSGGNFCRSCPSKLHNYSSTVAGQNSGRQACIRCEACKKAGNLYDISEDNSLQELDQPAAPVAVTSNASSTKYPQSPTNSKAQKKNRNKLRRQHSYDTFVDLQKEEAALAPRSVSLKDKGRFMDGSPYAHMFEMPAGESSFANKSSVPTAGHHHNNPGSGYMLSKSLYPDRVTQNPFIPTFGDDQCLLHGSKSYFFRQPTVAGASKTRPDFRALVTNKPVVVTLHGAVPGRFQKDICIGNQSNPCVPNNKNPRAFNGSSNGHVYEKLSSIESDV
UniProt Q00960, 27-1482 I111A: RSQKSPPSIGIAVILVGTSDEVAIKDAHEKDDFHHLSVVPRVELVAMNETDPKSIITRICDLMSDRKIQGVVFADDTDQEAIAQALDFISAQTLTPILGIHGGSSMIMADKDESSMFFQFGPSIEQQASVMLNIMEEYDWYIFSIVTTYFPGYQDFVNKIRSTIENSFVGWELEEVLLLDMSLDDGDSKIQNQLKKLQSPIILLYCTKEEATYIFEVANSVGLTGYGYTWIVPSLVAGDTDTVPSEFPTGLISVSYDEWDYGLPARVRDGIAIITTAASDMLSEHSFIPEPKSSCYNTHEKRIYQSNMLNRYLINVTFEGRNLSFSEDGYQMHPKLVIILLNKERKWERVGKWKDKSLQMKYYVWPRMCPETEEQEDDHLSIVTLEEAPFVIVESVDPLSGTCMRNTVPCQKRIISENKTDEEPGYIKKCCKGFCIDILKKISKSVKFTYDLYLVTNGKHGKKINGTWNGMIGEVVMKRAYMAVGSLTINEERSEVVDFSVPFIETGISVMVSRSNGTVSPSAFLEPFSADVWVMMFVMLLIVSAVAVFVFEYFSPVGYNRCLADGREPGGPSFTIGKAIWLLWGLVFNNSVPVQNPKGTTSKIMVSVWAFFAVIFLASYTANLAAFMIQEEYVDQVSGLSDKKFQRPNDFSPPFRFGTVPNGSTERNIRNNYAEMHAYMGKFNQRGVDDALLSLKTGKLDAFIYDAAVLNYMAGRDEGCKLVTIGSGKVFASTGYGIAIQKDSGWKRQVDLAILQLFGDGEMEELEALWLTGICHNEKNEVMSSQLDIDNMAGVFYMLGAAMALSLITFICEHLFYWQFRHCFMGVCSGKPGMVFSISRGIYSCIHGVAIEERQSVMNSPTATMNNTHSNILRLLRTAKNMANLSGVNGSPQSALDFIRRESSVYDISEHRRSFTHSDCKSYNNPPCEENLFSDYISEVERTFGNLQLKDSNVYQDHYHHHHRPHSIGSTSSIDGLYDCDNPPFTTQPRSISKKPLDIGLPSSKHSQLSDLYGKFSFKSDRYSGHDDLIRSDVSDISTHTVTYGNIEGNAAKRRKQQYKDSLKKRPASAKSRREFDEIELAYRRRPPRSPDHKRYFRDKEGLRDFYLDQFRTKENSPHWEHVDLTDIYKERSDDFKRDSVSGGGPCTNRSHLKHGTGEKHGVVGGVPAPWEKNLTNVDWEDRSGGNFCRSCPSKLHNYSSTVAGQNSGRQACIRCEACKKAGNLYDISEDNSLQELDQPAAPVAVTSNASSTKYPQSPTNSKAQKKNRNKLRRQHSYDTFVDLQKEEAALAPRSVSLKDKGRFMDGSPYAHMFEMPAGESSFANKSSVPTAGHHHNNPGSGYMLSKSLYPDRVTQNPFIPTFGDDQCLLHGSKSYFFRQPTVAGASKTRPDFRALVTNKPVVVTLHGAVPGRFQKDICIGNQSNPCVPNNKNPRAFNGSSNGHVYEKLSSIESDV
UniProt Q00960, 27-1482 E236A: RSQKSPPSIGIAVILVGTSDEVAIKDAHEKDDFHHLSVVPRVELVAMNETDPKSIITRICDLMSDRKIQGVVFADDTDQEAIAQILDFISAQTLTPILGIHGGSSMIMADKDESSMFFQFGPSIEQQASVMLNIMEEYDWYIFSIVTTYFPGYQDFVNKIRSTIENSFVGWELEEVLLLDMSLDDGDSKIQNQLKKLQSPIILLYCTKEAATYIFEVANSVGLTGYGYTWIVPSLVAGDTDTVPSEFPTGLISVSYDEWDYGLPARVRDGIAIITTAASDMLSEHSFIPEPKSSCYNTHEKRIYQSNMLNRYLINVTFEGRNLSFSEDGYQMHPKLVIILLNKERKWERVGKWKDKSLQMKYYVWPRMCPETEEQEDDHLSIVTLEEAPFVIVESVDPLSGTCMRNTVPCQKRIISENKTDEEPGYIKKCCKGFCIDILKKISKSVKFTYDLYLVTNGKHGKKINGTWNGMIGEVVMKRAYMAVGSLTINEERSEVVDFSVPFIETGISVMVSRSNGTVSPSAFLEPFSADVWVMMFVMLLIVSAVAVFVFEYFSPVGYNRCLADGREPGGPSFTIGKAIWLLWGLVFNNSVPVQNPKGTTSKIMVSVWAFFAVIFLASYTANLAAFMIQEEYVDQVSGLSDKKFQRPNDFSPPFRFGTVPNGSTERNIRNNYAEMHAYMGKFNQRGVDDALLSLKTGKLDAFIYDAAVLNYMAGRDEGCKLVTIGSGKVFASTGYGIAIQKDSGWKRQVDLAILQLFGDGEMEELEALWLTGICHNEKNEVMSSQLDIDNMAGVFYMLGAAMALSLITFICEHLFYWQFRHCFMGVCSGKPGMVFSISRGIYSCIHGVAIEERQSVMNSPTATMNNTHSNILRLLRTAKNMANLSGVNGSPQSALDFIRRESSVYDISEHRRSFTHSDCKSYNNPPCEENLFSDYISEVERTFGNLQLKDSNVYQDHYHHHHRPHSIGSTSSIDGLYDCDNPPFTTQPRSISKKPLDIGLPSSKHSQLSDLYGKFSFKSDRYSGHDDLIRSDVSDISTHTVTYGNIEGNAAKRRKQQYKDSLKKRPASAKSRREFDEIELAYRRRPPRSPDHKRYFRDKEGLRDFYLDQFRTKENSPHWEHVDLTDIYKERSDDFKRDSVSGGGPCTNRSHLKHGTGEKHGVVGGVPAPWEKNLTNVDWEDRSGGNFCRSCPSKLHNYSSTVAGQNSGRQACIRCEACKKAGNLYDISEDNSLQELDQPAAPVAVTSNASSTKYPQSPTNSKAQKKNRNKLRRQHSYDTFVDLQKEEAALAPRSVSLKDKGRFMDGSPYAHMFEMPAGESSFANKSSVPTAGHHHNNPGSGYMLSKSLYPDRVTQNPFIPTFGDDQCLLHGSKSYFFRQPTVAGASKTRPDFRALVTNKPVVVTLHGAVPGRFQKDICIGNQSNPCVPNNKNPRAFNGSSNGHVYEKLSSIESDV

Tests used:
[1] = biological target: GluN1-1a S132A/GluN2B WT (Rattus norvegicus, UniProt P35439+Q00960, S132A); conditions: mutant IC50 / wildtype IC50, GluN1-1a S132A
[2] = biological target: GluN1-1a WT/GluN2B Q110A (Rattus norvegicus, UniProt P35439+Q00960, Q110A); conditions: mutant IC50 / wildtype IC50, GluN2B Q110A
[3] = biological target: GluN1-1a WT/GluN2B I111A (Rattus norvegicus, UniProt P35439+Q00960, I111A); conditions: mutant IC50 / wildtype IC50, GluN2B I111A
[4] = biological target: GluN1-1a L135N/GluN2B WT (Rattus norvegicus, UniProt P35439+Q00960, L135N); conditions: mutant IC50 / wildtype IC50, GluN1-1a L135N
[5] = biological target: GluN1-1a F113S/GluN2B WT (Rattus norvegicus, UniProt P35439+Q00960, F113S); conditions: mutant IC50 / wildtype IC50, GluN1-1a F113S
[6] = biological target: GluN1-1a WT/GluN2B E236A (Rattus norvegicus, UniProt P35439+Q00960, E236A); conditions: mutant IC50 / wildtype IC50, GluN2B E236A
[7] = biological target: GluN1-1a WT/GluN2B F176Y (Rattus norvegicus, UniProt P35439+Q00960, F176Y); conditions: mutant IC50 / wildtype IC50, GluN2B F176Y
[8] = biological target: GluN1-1a Y109S/GluN2B WT (Rattus norvegicus, UniProt P35439+Q00960, Y109S); conditions: mutant IC50 / wildtype IC50, GluN1-1a Y109S
[9] = biological target: GluN1-1a WT/GluN2B F176A (Rattus norvegicus, UniProt P35439+Q00960, F176A); conditions: mutant IC50 / wildtype IC50, GluN2B F176A

Compound: Oc1ccc2c(c1)CCN(CCCCc1ccccc1)C[C@@H]2O [compound (R)-1]
- IC50 shift factor [1]: 2.0
- IC50 shift factor [2]: 7.4
- IC50 shift factor [3]: 2.6
- IC50 shift factor [4]: 5.5
- IC50 shift factor [5]: 2.2
- IC50 shift factor [6]: 3.7
- IC50 shift factor [7]: 2.0
- IC50 shift factor [8]: 0.4
- IC50 shift factor [9]: 1977.1

Compound: Oc1ccc2c(c1)CCN(CCCCc1ccccc1)C[C@H]2O [compound (S)-1]
- IC50 shift factor [1]: 3.4
- IC50 shift factor [2]: 1.2
- IC50 shift factor [4]: 17.8
- IC50 shift factor [7]: 1.3
- IC50 shift factor [9]: 75.4
